Two molecules from patent US5212286A, “Atrial Natriuretic/vasodilator peptide compounds” (Scios Nova Inc., priority 1986, dated 1993) can be followed below.

Bounds are passed on as bounds.

By Ki is commonly meant a measure of affinity in units of concentration, obtained from inhibition or displacement.

In test [1] the test system is precontracted rabbit or rat aortic preparations. The settings on record: thoracic aortic segments precontracted with histamine or norepinephrine; read-out: IC50 (concentration producing half-maximal relaxation of the precontracted tissue). As to the method: Synthetic ANVP compounds were compared to partially purified (gel filtration step) and purified (HPLC) native ANVP compounds (See FIGS. 3A-D) for their ability to relax histamine-contracted aortic rings. Rings were suspended in 10 ml aerated Kreb's buffer under 1.5 gm passive tension. Rings were precontracted with 5 X 10^-6 M histamine, washed and allowed to return to baseline tension, as described ([…]., supra). Increasing amounts of purified or synthetic ANVP compounds were then added in cumulative fashion. […] The relaxation effects of various ANVP compounds on precontracted rabbit or rat aortic preparations are shown in Table III. | Thoracic aortic segments were precontracted with histamine or | norepinephrine as previously described. Various doses of ANVP compounds | were then added and relaxation of the precontracted state was monitored. | Data are expressed as the concentration of each peptide required to | produce a halfmaximal relaxation of the precontracted tissue (IC50).

Test [2] has as its system ANVP receptor sites on cultured bovine vascular smooth muscle cells. Kind of test: Displacement of specific [125I]rANVP(126-150) binding on cultured smooth muscle cells. The settings on record: concentration of half-maximal displacement. The source says:
Specific and saturable binding is a necessary component of a hormone/receptor interaction.
Various concentrations of the peptides described were examined for […]

A further test concerns intact rats. Kind of test: Natriuretic and diuretic effects in intact rats (bolus injection). The class given is in vivo, rat. As to the method:
Synthetic ANVP compounds […] hANVP(127-151) were also found to be natriuretic in the intact rat. These compounds were administered as a bolus injection to Inactin anesthetized rats (100 mg/kg, average weight 399 g) which were maintained on a constant infusion of normal saline at 2.2 ml/hr. […] Data are expressed as mean±SE.

The subject of a further test is isolated rat kidney. The test is described as follows: Renal function in the isolated perfused rat kidney. The note with it: dose 1 μg; experimental period E; mean of 3-8 experiments.

As to `CC[C@H](C)[C@@H]1NC(=O)[C@H](CCCNC(=N)N)NC(=O)[C@@H](CC(=O)O)NC(=O)[C@H]([C@@H](C)CC)NC(=O)[C@H](CCCNC(=N)N)NC(=O)CNC(=O)CNC(=O)[C@H](Cc2ccccc2)NC(=O)[C@@H](NC(=O)[C@H](CO)NC(=O)[C@H](CO)NC(=O)[C@@H](N)CCCNC(=N)N)CSSC[C@@H](C(=O)N[C@@H](CC(N)=O)C(=O)N[C@@H](CO)C(=O)N[C@@H](Cc2ccccc2)C(=O)N[C@@H](CCCNC(=N)N)C(=O)N[C@@H](Cc2ccc(O)cc2)C(=O)O)NC(=O)CNC(=O)[C@H](CC(C)C)NC(=O)CNC(=O)[C@H](CO)NC(=O)[C@H](CCC(N)=O)NC(=O)[C@H](C)NC(=O)CNC1=O` [[D-Asp^135]rANVP(126-150), H-Arg-Ser-Ser-Cys-Phe-Gly-Gly-Arg-Ile-[D-Asp]-Arg-Ile-Gly-Ala-Gln-Ser-Gly-Leu-Gly-Cys-Asn-Ser-Phe-Arg-Tyr-OH], the IC50 in test [1] was determined as 28 nM. This molecule came in with an inhibitory constant (Ki) in test [2] (Series B smooth muscle cells) of more than 40 nM. In addition, in the test on intact rats (Table VII doses), the “diuresis and natriuresis in intact rats, in words” value is recorded as “exceptions”. Besides, in the test with intact rats (dose 3670 pmol/kg), the “Peak Na+ Excr.” value turned out to be 0.3 ± 0.1 µmol/min and the “Peak Urine Vol.” value came out at 8.5 ± 0.5 µL/min.

Turning to `CC[C@H](C)[C@@H]1NC(=O)[C@H](CCCNC(=N)N)NC(=O)[C@H](CC(=O)O)NC(=O)[C@H]([C@@H](C)CC)NC(=O)[C@H](CCCNC(=N)N)NC(=O)CNC(=O)CNC(=O)[C@H](Cc2ccccc2)NC(=O)[C@@H](NC(=O)[C@H](CO)NC(=O)[C@H](CO)NC(=O)[C@@H](N)CCCNC(=N)N)CSSC[C@@H](C(=O)N[C@@H](CC(N)=O)C(=O)N[C@@H](CO)C(=O)N[C@@H](Cc2ccccc2)C(=O)N[C@@H](CCCNC(=N)N)C(=O)N[C@@H](Cc2ccc(O)cc2)C(=O)O)NC(=O)CNC(=O)[C@H](CC(C)C)NC(=O)CNC(=O)[C@@H](CO)NC(=O)[C@H](CCC(N)=O)NC(=O)[C@H](C)NC(=O)CNC1=O` [[D-Ser^141]rANVP(126-150), H-Arg-Ser-Ser-Cys-Phe-Gly-Gly-Arg-Ile-Asp-Arg-Ile-Gly-Ala-Gln-[D-Ser]-Gly-Leu-Gly-Cys-Asn-Ser-Phe-Arg-Tyr-OH], in the test with isolated rat kidney, the “.V (urine flow rate)” value was found to be 29.2 µL/min, the GFR was 0.51 mL/min and the “UNa.V (urinary sodium excretion rate)” value is 2.10 μEq/min. The IC50 in test [1] came to 11 nM. Moreover, in test [2] (Series A smooth muscle cells), the affinity corresponds to a Ki of 40 nM.
